Measured values reported in ChEMBL document CHEMBL1159140, “DuP 747: sar study” (1992).

The chains behind the UniProt entries cited, without tags or fusion partners. Where a name states a change or a piece, a line headed by the entry shows the natural chain unless it says otherwise.
UniProt P41145: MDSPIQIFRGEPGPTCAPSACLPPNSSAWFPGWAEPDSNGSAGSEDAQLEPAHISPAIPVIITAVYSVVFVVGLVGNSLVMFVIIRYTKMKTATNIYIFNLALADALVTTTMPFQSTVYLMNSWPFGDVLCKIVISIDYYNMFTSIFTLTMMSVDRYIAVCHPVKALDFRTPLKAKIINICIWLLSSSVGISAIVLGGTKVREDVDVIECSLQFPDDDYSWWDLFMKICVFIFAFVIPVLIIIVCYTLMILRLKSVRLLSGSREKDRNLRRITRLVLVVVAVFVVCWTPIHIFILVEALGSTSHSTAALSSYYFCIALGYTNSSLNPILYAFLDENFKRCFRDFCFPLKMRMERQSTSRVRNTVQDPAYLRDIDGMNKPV
UniProt P35372, whole entry, looked up: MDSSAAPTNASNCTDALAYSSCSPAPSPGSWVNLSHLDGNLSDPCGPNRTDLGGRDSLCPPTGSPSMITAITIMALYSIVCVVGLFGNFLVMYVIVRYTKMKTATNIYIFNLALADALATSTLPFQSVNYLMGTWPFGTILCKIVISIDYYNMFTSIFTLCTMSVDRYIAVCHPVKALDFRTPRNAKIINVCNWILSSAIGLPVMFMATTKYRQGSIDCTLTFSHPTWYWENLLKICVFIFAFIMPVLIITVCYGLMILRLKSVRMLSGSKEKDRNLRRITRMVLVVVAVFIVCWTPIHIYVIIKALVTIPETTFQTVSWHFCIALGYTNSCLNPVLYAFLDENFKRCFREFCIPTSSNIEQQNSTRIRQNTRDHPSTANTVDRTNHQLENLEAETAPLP

Key:
[1] = target: Kappa-type opioid receptor (Homo sapiens) (UniProt P41145); assay: In vitro binding property against kappa opioid receptor; assay type: single protein
[2] = target: Mu-type opioid receptor (Homo sapiens) (UniProt P35372); assay: In vitro binding property against mu opioid receptor; assay type: single protein

Compound	Activity [1]	Activity [2]
COc1cccc2c1CC[C@H](N1CCCC1)[C@H]2N(C)C(=O)Cc1ccncc1	15300 nM	33500 nM
COc1cccc2c1CC[C@@H](N1CCCC1)[C@@H]2N(C)C(=O)Cc1ccc(Cl)c(Cl)c1	350 nM	260 nM
COc1cccc2c1CC[C@H](N1CCCC1)[C@H]2N(C)C(=O)Cc1ccc(Cl)c(Cl)c1	6 nM and 7 nM	304 nM and 750 nM
COCc1cccc2c1CC[C@H](N1CCCC1)[C@H]2N(C)C(=O)Cc1ccc(Cl)c(Cl)c1	19 nM	> 10000 nM
COc1cccc2c1CC[C@H](N1CCCC1)[C@H]2N(C)C(=O)Cc1csc2ccccc12	15 nM	245 nM
CN(C(=O)Cc1ccc(Cl)c(Cl)c1)[C@H]1c2ccccc2C[C@@H]1N1CCCC1	7 nM	756 nM
COc1cccc2c1CC[C@H](N1CCCC1)[C@H]2N(C)C(=O)Cc1c(Cl)ccc(Cl)c1Cl	14 nM	350 nM
COc1ccc2c(c1)CC[C@H](N1CCCC1)[C@H]2N(C)C(=O)Cc1ccc(Cl)c(Cl)c1	8 nM	430 nM
COc1ccc(OC)c2c1CC[C@H](N1CCCC1)[C@H]2N(C)C(=O)Cc1ccc(Cl)c(Cl)c1	7 nM	630 nM
CN(C(=O)Cc1ccc(Cl)c(Cl)c1)[C@@H]1Cc2ccccc2C[C@H]1N1CCCC1	20 nM	615 nM
COc1ccc2c(c1)[C@H](N(C)C(=O)Cc1ccc(Cl)c(Cl)c1)[C@@H](N1CCCC1)CC2	94 nM	1300 nM
COc1cccc2c1CC[C@H](N1CCCC1)[C@H]2N(C)C(=O)COc1ccc(Cl)c(Cl)c1	10 nM	540 nM
CN(C(=O)Cc1ccc(Cl)c(Cl)c1)[C@H]1c2ccc(O)cc2CC[C@@H]1N1CCCC1	1 nM	21 nM
COc1cccc2c1CC[C@H](N1CCCC1)[C@H]2N(C)C(=O)Cc1ccsc1	144 nM	21700 nM
COc1cccc2c1CC[C@H](N1CCCC1)[C@H]2N(C)C(=O)Cc1ccc(F)c(F)c1	7 nM	1460 nM
COc1cccc2c1CC[C@H](N1CCCC1)[C@H]2N(C)C(=O)Cc1cccc2sccc12	8 nM	285 nM
CN(C(=O)Cc1ccc(Cl)c(Cl)c1)[C@H]1c2ccccc2CCC[C@@H]1N1CCCC1	87 nM	6750 nM
COc1cc2c(cc1F)CC[C@H](N1CCCC1)[C@H]2N(C)C(=O)Cc1ccc(Cl)c(Cl)c1	400 nM	6400 nM
CN(C(=O)Cc1ccc(Cl)c(Cl)c1)[C@H]1c2cccc(O)c2CC[C@@H]1N1CCCC1	5 nM	260 nM
CN(C(=O)Cc1ccc(Cl)c(Cl)c1)[C@H]1c2cccc(OCC(N)=O)c2CC[C@@H]1N1CCCC1	15 nM	335 nM

Compound	Activity [1]	Activity [2]
COc1cccc2c1CC[C@H](N1CCCC1)[C@H]2N(C)C(=O)Cc1ccc(N)cc1	140 nM	> 10000 nM
COc1cccc2c1CC[C@H](N1CCCC1)[C@H]2N(C)C(=O)Cc1ccc2c(c1)OCO2	14 nM	775 nM
CCOc1cccc2c1CC[C@H](N1CCCC1)[C@H]2N(C)C(=O)Cc1ccc(Cl)c(Cl)c1	7 nM	1630 nM
CN(C(=O)Cc1ccc(Cl)c(Cl)c1)[C@H]1c2ccccc2CC[C@@H]1N1CCCC1	10 nM	545 nM and 453 nM
COc1cccc2c1CC[C@H](N1CCCC1)[C@H]2N(C)C(=O)Cc1ccc(SC)cc1	15 nM	690 nM
COc1cccc2c1CC[C@H](N1CCCC1)[C@H]2N(C)C(=O)Cc1cccc2ccccc12	13 nM	207 nM
COc1cccc2c1CC[C@H](N1CCCC1)[C@H]2N(C)C(=O)Cc1c(Cl)cccc1Cl	3250 nM	1340 nM
CCN(C(=O)Cc1ccc(Cl)c(Cl)c1)[C@H]1c2cccc(OC)c2CC[C@@H]1N1CCCC1	120 nM	680 nM
COc1cccc2c1CC[C@H](N(C)Cc1ccccc1)[C@H]2N(C)C(=O)Cc1ccc(Cl)c(Cl)c1	3700 nM	> 10000 nM
COc1cccc2c1CC[C@H](N1CCCC1)[C@H]2N(C)C(=O)Cc1ccc(C(F)(F)F)cc1	12 nM	1200 nM
CN(C)[C@H]1CCc2ccccc2[C@@H]1N(C)C(=O)Cc1ccc(Cl)c(Cl)c1	870 nM	2310 nM
COc1cccc2c1CC[C@H](N1CCCC1)[C@H]2N(C)C(=O)Cc1cccnc1	230 nM	10000 nM
CN(C(=O)Cc1ccc(Cl)c(Cl)c1)C1CCCCC1N1CCCC1 (stereo not given)	15 nM	825 nM
COc1cccc2c1CC[C@H](N1CCCC1)[C@H]2N(C)C(=O)Cc1cccc(Cl)c1	12 nM	1600 nM
COc1cccc2c1CC[C@H](N1CCCC1)[C@H]2N(C)C(=O)Cc1ccc(Br)cc1	34 nM	540 nM
COc1c([N+](=O)[O-])ccc2c1CC[C@H](N1CCCC1)[C@H]2N(C)C(=O)Cc1ccc(Cl)c(Cl)c1	49 nM	> 10000 nM
CCC(=O)Oc1cccc2c1CC[C@H](N1CCCC1)[C@H]2N(C)C(=O)Cc1ccc(Cl)c(Cl)c1	4 nM	530 nM
Cc1ccc2c(c1)CC[C@H](N1CCCC1)[C@H]2N(C)C(=O)Cc1ccc(Cl)c(Cl)c1	70 nM	700 nM
COc1cccc2c1CC[C@H](N1CCCC1)[C@H]2N(C)C(=O)Cc1ccccc1[N+](=O)[O-]	39 nM	3600 nM
CN(C(=O)Cc1ccc(Cl)c(Cl)c1)[C@H]1c2ccc(O)c(O)c2CC[C@@H]1N1CCCC1	9 nM	568 nM

Compound	Activity [1]	Activity [2]
CN(C(=O)Cc1ccc(Cl)c(Cl)c1)[C@H]1c2ccc3ccccc3c2CC[C@@H]1N1CCCC1	56 nM	4100 nM
Cc1c(O)ccc2c1CC[C@H](N1CCCC1)[C@H]2N(C)C(=O)Cc1ccc(Cl)c(Cl)c1	32 nM	1020 nM
COc1cccc2c1CC[C@H](N1CCCC1)[C@H]2N(C)C(=O)Cc1ccc([N+](=O)[O-])cc1	10 nM	1200 nM
CN(C(=O)Cc1ccc(Cl)c(Cl)c1)[C@H]1c2cccc(CO)c2CC[C@@H]1N1CCCC1	5 nM	4380 nM
COc1cccc2c1CC[C@H](N1CCCC1)[C@H]2N(C)C(=O)Cc1ccc(Cl)cc1	66 nM	2200 nM
CN(C(=O)Cc1ccc(Cl)c(Cl)c1)[C@H]1c2cccc(OCC(=O)O)c2CC[C@@H]1N1CCCC1	7900 nM	> 10000 nM
CN(C(=O)Cc1ccc(Cl)c(Cl)c1)[C@H]1c2cc(O)c(O)cc2CC[C@@H]1N1CCCC1	1 nM	29 nM
COc1ccc(CC(=O)N(C)[C@H]2c3cccc(OC)c3CC[C@@H]2N2CCCC2)cc1	20 nM	900 nM
CN(C(=O)Cc1ccc(Cl)c(Cl)c1)[C@H]1c2ccc(O)c([N+](=O)[O-])c2CC[C@@H]1N1CCCC1	5 nM	662 nM
COc1cccc2c1CC[C@H](N1CCCC1)[C@H]2N(C)C(=O)Cc1ccc(F)cc1	19 nM	1840 nM
CN(C(=O)Cc1ccc(Cl)c(Cl)c1)[C@H]1c2cc(O)ccc2CC[C@@H]1N1CCCC1	3 nM	45 nM
COc1ccc2c(c1OC)CC[C@H](N1CCCC1)[C@H]2N(C)C(=O)Cc1ccc(Cl)c(Cl)c1	32 nM	2000 nM
COc1cccc2c1CC[C@H](N1CCCC1)[C@H]2N(C)C(=O)Cc1ccccc1Cl	35 nM	2500 nM
COc1cccc2c1CC[C@H](N1CCCC1)[C@H]2N(C)C(=O)Cc1ccc(Cl)cc1Cl	12 nM	450 nM
COc1cc(Cl)cc2c1CC[C@H](N1CCCC1)[C@H]2N(C)C(=O)Cc1ccc(Cl)c(Cl)c1	18 nM	975 nM
COc1cccc2c1CC[C@H](N1CCCC1)[C@H]2N(C)C(=O)Cc1ccc(C)c(C)c1	8 nM	775 nM
COc1cccc2c1CC[C@H](N1CCCC1)[C@H]2N(C)C(=O)Cc1cccc([N+](=O)[O-])c1	6 nM	510 nM
CN(C(=O)Cc1ccc(Cl)c(Cl)c1)[C@H]1c2ccccc2C(c2ccccc2)C[C@@H]1N1CCCC1 (stereo not given in full)	190 nM	1200 nM
COc1ccc(CC(=O)N(C)[C@H]2c3cccc(OC)c3CC[C@@H]2N2CCCC2)cc1OC	120 nM	2660 nM
CN(C(=O)Cc1ccc(Cl)c(Cl)c1)[C@H]1c2ccccc2C(C)(C)C[C@@H]1N1CCCC1	857 nM	277 nM

Where “and” joins values, the source holds several entries; their conditions need not be identical. Equal values may be shown once.
